{"sequences": {"note": "By UniProt entry, the sequences of proteins in these tests, tags left out.", "UniProt Q01970, whole entry": "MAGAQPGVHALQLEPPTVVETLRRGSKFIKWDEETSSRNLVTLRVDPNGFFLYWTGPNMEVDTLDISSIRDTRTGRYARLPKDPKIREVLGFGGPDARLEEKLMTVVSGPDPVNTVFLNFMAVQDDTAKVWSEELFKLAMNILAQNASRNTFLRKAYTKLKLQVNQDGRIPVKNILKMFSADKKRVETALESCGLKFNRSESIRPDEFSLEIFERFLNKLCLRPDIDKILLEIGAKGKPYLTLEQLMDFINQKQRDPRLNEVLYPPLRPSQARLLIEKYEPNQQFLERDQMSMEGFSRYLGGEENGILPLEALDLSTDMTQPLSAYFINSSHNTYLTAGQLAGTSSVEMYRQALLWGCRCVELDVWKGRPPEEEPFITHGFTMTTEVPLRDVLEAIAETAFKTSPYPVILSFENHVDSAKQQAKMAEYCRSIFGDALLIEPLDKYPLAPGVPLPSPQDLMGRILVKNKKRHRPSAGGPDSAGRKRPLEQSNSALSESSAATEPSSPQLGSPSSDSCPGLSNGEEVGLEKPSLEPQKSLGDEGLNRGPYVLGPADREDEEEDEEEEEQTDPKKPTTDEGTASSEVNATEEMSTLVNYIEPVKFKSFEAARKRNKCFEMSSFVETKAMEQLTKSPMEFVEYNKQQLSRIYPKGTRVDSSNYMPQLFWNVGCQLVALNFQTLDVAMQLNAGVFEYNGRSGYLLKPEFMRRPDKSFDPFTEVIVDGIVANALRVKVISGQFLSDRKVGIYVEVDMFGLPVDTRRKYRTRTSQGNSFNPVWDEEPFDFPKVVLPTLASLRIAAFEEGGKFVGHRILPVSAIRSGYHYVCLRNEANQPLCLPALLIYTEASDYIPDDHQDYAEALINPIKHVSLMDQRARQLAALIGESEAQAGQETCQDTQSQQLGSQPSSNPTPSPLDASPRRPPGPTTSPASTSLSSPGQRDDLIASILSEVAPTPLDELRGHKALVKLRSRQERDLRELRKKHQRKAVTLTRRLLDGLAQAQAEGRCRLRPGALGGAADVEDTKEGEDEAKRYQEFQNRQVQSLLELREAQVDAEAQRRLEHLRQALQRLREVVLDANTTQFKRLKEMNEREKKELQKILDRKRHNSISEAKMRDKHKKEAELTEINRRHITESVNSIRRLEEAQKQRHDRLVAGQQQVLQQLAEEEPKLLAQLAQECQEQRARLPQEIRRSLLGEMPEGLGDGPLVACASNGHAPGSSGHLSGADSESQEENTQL"}, "source": "PubChem BioAssay AID743261", "about": "(The Scripps Research Institute Molecular Screening Center, 2014)", "note": "The list shows a part of the results, in another mix than the full data. Active and inactive are the calls of the source. Rule as the data show it: active = inhibition above about 11%; inactive = the rest.", "data": [{"molecular_target": "1-phosphatidylinositol 4,5-bisphosphate phosphodiesterase beta-3 (Homo sapiens) (UniProt Q01970)", "experiment": "PLC-beta3 inhibitor confirmation, biochemical, fluorescence, purified enzyme (AID 743261)", "conditions": "purified PLC-beta3, fluorogenic substrate fluorescence; at 12.3 µM; active compounds read high", "values": [{"smiles": "O=[N+]([O-])c1cc([N+](=O)[O-])c(C(F)(F)F)c([N+](=O)[O-])c1O", "inhibition": "inactive: -6.44%"}]}]}
